From patent US8252930B2, “Azaindole derivatives with a combination of partial nicotinic acetyl-choline receptor agonism and dopamine reuptake inhibition” (Solvay Pharmaceuticals B.V., priority 2006, dated 2012)

Tested on: rat striatal slices
Assay: In vitro [3H]-dopamine release from rat striatal slices
Format: cell-based

c1cnc2[nH]cc(C[C@@H]3CCCN3)c2c1 (stereo in doubt) [Compound 97, (S)-3-Pyrrolidin-2-ylmethyl-1H-pyrrolo[2,3-b]pyridine]
Functional activity release [^3H]-Dopamine % of control: 122 % of control
